Binding of CDR-mutated scFvs to a peptide of the spike HR2 region

The target is the same throughout: PDVDLGDISGINAS, from the HR2 region of SARS-CoV-2 spike.

Ab-14 is the parent antibody, in scFv form: VH, then three GGGGS repeats, then VL. The heavy chain is unchanged in all variants.
VH: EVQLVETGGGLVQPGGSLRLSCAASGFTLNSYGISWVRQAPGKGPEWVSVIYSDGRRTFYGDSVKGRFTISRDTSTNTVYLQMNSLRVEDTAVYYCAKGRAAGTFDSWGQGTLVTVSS
VL: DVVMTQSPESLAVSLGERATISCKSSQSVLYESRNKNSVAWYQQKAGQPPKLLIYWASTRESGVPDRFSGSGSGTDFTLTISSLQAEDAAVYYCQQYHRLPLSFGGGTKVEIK

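These sequences belong to a second round, designed from the earlier measurements on random variants of the parent. Their group label is 14L_En_Gen (En: ensemble of fine-tuned language models; Gen: genetic algorithm). The assay is AlphaSeq: two haploid yeast populations carry antibody and antigen on their surface. Pairs that bind mate more often; barcode pairs of the diploids are counted by sequencing. Each replicate has its own calibration line, from reference interactions of the BCL2 family. Each pool was mated in six replicate cultures.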

Each variant is given by its three light chain CDRs, as the data file delimits them; those of the parent are KSSQSVLYESRNKNSVA, WASTRES, QQYHRLPLS.
Scale: log10 of Kd in nM, estimated from mating counts; low values are strong binders.
Where no diploid with the target was found in that replicate, the entry reads "nd": below detection, most likely a poor binder, though not proof of it.
In the paper, a design with two or fewer of six values counts as a poor binder.
Three control strains display no target. For all light chain designs, 4% of the pairings with them gave a signal, with a median of 2.64 and one signal in twenty below 1.59, so weak values seen in few replicates may be background. Also given: how often the same scFv was detected with the empty control strains, with their mean in brackets.
Values of this round are not directly comparable with the first-round values of the same sequences.

| CDR-L1 | CDR-L2 | CDR-L3 | log10 Kd (nM) by replicate | control signals |
|---|---|---|---|---|
| KISQMVRVGSTHSNSIA | EEATRLD | QQYHRLPLS | 0.67 0.36 0.13 0.34 0.18 0.31 | 0/18 |
| TISQMQPLFSQSINNVA | EVSAREN | QQYDRLPLS | 1.16 0.69 0.17 0.11 0.71 1.02 | 0/18 |
| TIQMFMDNLYGNRNNVA | NTSTLGD | QSYDRLPLS | 1.03 1.06 1.05 0.74 0.64 1.08 | 2/18 (1.89) |
| KLSMITGHMHMSKNNVA | EMVTRVN | QQYDRLPLA | 1.80 1.52 1.52 1.60 1.84 2.44 | 1/18 (1.91) |
| KLVNFMNRGTHHTSNIA | DAQNRCD | QQYARLPLA | 0.13 0.00 0.47 0.08 0.07 0.38 | 1/18 (1.56) |
| KVSEFMKGLMSRQDSIA | DNNTRGE | QQYDRLPLS | 1.80 1.40 1.33 2.92 1.57 1.99 | 1/18 (3.06) |
| HITYGMMVAGRHSKSIA | QAEERAK | QQYDRLPLI | 1.14 1.54 0.91 0.97 1.35 0.89 | 0/18 |
| MMSQVTGTGQRHRNNVA | QTSTREP | QQYDHLPLI | 1.27 1.19 0.88 1.36 1.11 1.31 | 2/18 (2.50) |
| KVSEFMRGLMQRTDSIA | DNVTRSN | QQYDRLPLS | 1.55 2.12 2.81 1.68 1.99 2.04 | 0/18 |
| MLSEFMHMLGAKKNSIA | DLVVRAN | QQYHRLPLA | 1.02 1.40 1.28 0.82 1.06 1.36 | 0/18 |
| MISQLYNMGQFAINSVA | QASQRNE | QQYDRLPLM | 2.11 0.93 2.32 0.91 1.45 1.62 | 0/18 |
| MISQLYNMGTFAINSVA | QASVRNE | QQYDRLPLI | 2.11 1.20 2.02 1.14 1.00 1.88 | 1/18 (2.94) |
| SLGLVTMLEYAGRNNVA | NNSTRET | QQYDRLPLS | 2.11 1.74 0.98 1.18 2.29 1.87 | 1/18 (2.72) |
| KIGMTLNQLMQKKNNVA | DLVEREN | QQYHRLPLS | 0.63 0.51 0.88 0.31 1.13 0.81 | 2/18 (2.39) |
| TITGVMTQMSHSKNNVA | EVSTRLP | QQYFRLPLE | 0.39 0.28 0.15 0.12 0.01 0.20 | 2/18 (1.97) |
| MISQLMNMGQFAINSVA | QASIRNA | QQYDRLPLT | 1.52 1.25 1.74 0.83 0.97 1.73 | 0/18 |
| TIGHTLMQGVRNSSNVA | EVSQRLN | QQYDRLPLI | 1.91 2.53 2.77 3.24 3.14 1.87 | 0/18 |
| KLSGIMRLESKKSNSIA | EMTTRGE | QQYDRLPLS | 0.57 0.54 0.67 0.46 0.64 0.74 | 2/18 (3.42) |
| MISQVMNTLTREGNNVA | DLAERES | QQYFRLPLS | nd nd nd nd nd nd | 0/18 |
| KLTMISGLEKVSKNNVA | EMETRER | QQYNRLPLS | -0.27 -0.32 -0.39 -0.33 -0.30 -0.02 | 0/18 |
| SISGFMKSLSAHNNNVA | DMTNREN | QQYDRLPLS | 0.49 2.13 1.12 1.30 0.16 0.83 | 0/18 |
| KISMVMENQLKNRNSVA | ELVTRLN | QQYNRLPLS | 3.00 1.77 1.82 2.61 2.23 1.76 | 2/18 (3.06) |
| TISQMTSLFSMSINNVA | EVSTREE | QQYDRLPLM | 0.52 1.09 0.70 0.68 0.67 0.67 | 1/18 (2.19) |
| IVSQLMIWGMHAKNSIA | EAETRGN | QQYDRLPLF | 1.56 1.78 1.59 0.95 2.45 1.83 | 0/18 |
| MIYGAQRELGLAANSIA | DNVTRYN | QQYERLPLS | 2.65 2.70 2.45 2.39 3.00 3.26 | 1/18 (2.79) |
| TIPDLMGHVSKHTNNVA | DMDTRGD | QQYNRLPLS | 0.18 0.00 0.03 -0.22 0.11 0.17 | 0/18 |
| KIGMTLNQLLHQKNNVA | DLVERED | QQYFRLPLS | 0.20 0.23 -0.12 0.24 0.44 0.24 | 0/18 |
| KLVQFMNRGTHHTSNIA | DAALRED | QQYHRLPLA | nd nd nd nd nd nd | 0/18 |
| MMSQVTGMESKHRNNVA | QTSTREP | QQYDRLPLI | 1.77 nd nd 1.26 0.80 1.98 | 1/18 (1.22) |
| NLSAMTAHESVKSKNVA | ERSTRES | QQYNRLPLS | 0.87 0.93 0.73 0.86 1.24 0.94 | 1/18 (3.19) |
| MVNGIMDHLSKQTNNVA | ETTTRNS | QQYDRLPLT | 1.06 0.74 0.67 0.80 0.61 0.63 | 0/18 |
| KLSMVTGHMSIEKNNVA | EMETREN | QQYNRLPLS | 0.28 0.43 0.39 0.44 0.41 0.66 | 1/18 (2.60) |
| IVSQLMLWGYKAKNSIA | EAELRTN | QQYDRLPLF | nd nd nd nd 3.14 nd | 0/18 |
| MISQLYNMGTFAINSVA | QASIRNA | QQYDRLPLM | 0.56 1.16 1.61 0.36 0.67 1.16 | 1/18 (2.21) |
| TLYGLSVSMSKNVNSVA | EMTTRED | QQYDRLPLV | 1.34 1.82 1.11 1.28 1.55 1.19 | 2/18 (2.56) |
| TLYGLTNSMSKNKDNVA | EMSTREE | QQYDRLPLI | 1.34 1.36 1.02 1.70 1.44 1.33 | 0/18 |
| MLGDVAFGLQRKHNSVA | DNSTRES | QQYDRLPLS | 2.25 1.19 0.88 1.36 1.00 2.41 | 0/18 |
| TISMHTSLFSQTINNVA | EVSTREQ | QQYDRLPLM | 1.24 0.85 0.90 0.81 0.90 1.06 | 0/18 |
| KLSGLMQSSKFAKNNVA | ENNTRED | QQYDRLPLS | nd nd nd nd 4.18 nd | 0/18 |
| HITMGMYVAGHHHSSIA | QAETRAK | QQYDRLPLI | 1.04 1.14 1.19 0.85 1.44 2.07 | 0/18 |
| QIYQAMHTLSQIKDNVA | DVNERGS | QQYFRLPLS | 0.44 0.25 0.25 -0.04 0.16 0.25 | 1/18 (3.01) |
| KLSGLMRVESKNKSNIA | EMNTRGA | QQYDRLPLS | 1.04 0.57 0.52 0.61 0.67 0.79 | 2/18 (3.37) |
| HITYGMMVAGRHSSSIA | QAEERAK | QQYDRLPLA | 0.35 0.38 0.11 0.21 0.14 0.47 | 2/18 (2.84) |
| HMSALTLQGMRMRNSVA | QMTTREN | QQYDRLPLA | 0.92 0.78 0.65 0.56 0.48 0.58 | 1/18 (1.84) |
| MLSDVTEGMRRKHNSVA | DNNTRED | QQYDRLPLS | 0.14 0.01 0.20 -0.37 0.13 0.33 | 2/18 (2.99) |

The last 5 entries again:

CDR-L1	CDR-L2	CDR-L3	log10 Kd (nM) by replicate	control signals
QIYQAMHTLSQIKDNVA	DVNERGS	QQYFRLPLS	0.44 0.25 0.25 -0.04 0.16 0.25	1/18 (3.01)
KLSGLMRVESKNKSNIA	EMNTRGA	QQYDRLPLS	1.04 0.57 0.52 0.61 0.67 0.79	2/18 (3.37)
HITYGMMVAGRHSSSIA	QAEERAK	QQYDRLPLA	0.35 0.38 0.11 0.21 0.14 0.47	2/18 (2.84)
HMSALTLQGMRMRNSVA	QMTTREN	QQYDRLPLA	0.92 0.78 0.65 0.56 0.48 0.58	1/18 (1.84)
MLSDVTEGMRRKHNSVA	DNNTRED	QQYDRLPLS	0.14 0.01 0.20 -0.37 0.13 0.33	2/18 (2.99)

The measurements come from Li et al. 2023 (doi:10.1038/s41467-023-39022-2) through the FLAb antibody collection.